The list is not random: actives were taken first. Their share in the collection is about 3.7%.
IL-2 act: activates IL-2 in a cell-based reporter assay; actives 0.065% (n = 360,000); IL-2 activation reporter assay, cell-based qHTS; stimulated with anti-CD3/CD4/CD28 beads; in transgenic mouse T cells; AID 652025; activation, % (series mostly up to about 46 µM); in the data active = activation above about 50%; inconclusive = mostly about 30% to 49%; also: 0% is about no effect
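EGFP and DsRed fluorescence is measured by plate cytometry in unstimulated transgenic mouse T cells exposed to compound for 60 minutes, then stimulated 18 hours at 37 degrees C with anti-CD3/anti-CD4 beads plus anti-CD28.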
A549 viability: kills or reduces viability of A549 cells in Nrf2 counter-screen. actives 0.16% (n = 390,000). AID 504648. Potency, µM (series often up to 46 µM), without a hit: at the top dose activity change, negative = cytotoxicity, hits mostly inhibitors. A549 ARE-Fluc cells, CellTiter-Fluor viability, 18-24 h; also: potency is read from the fitted curve at half-maximal effect; % is scaled to controls: 0 for no effect and ±100 for the full control effect
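A549 ARE_Fluc cells in 5% FBS OPTI-MEM were exposed to compounds in concentration-response for 18-24 h at 37 deg C. Viability was read by CellTiter-Fluor fluorescence (Ex 405/Em 525) after 30 min, before the luciferase read.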
Nrf2 activator: activates Nrf2 signaling; AREc32 ARE-luciferase reporter (MCF7-derived line), luminescence, 24 h; Potency, µM (series often up to 46.1 µM), inactives show at the highest dose activation, actives largely listed as activators; actives 0.31% (n = 410,000); AID 624171; also: potency is read from the fitted curve at half-maximal effect; % of control where 0% means no effect; nearly all actives have a fitted effect of over 65% in size
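AREc32_Fluc, 1000 cells/well, OPTI-MEM + 5% FBS, o/n 37 deg C 5% CO2; 23 nL cpd by pin tool, 24 hr; Steady-Glo 30 min RT, luminescence.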
miR-21 reporter: raises the signal of a miR-21 reporter | HeLa miR-21 FLuc reporter, luciferase, 48 h | Potency, µM (doses to about 38.3 µM), without a hit: at the top dose reporter change, positive = more light | 340,000 tested, under 10 active | AID 2288; active = well fitted rising curve with a large enough effect; inconclusive = small, poorly fitted or top-dose-only effect; inactive = no such curve, though single readings can be large or run the other way;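 note: % of control where 0% means no effect; miR-21 action dims this reporter so a rising signal means less miR-21 action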
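HeLa cells stably expressing CMV-driven firefly luciferase with a downstream miR-21 binding sequence, endogenously expressing miR-21, were treated with titrations (up to about 40uM final) for 48 hours at 37 degree Celsius. Luciferase luminescence was read after lysis.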
Nrf2 block: blocks Nrf2 signaling; actives 2.1% (n = 360,000); Potency, µM (series often up to 46 µM), for inactives: at the highest dose activity change, negative = inhibition, actives largely listed as inhibitors; A549 ARE-Fluc reporter, luciferase luminescence, 18-24 h; AID 504444; also: potency is read from the fitted curve at half-maximal effect; % is scaled to controls: 0 for no effect and ±100 for the full control effect; nearly all actives have a fitted effect of over 60% in size
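Cells were seeded and rested 2 h, then exposed to compounds for 18-24 h. CellTiter-Fluor was read first as a viability measure. BugLite was added 15 min before the final luminescent read of ARE-luciferase activity in A549 cells.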
ClpP mod: qHTS Assay for Activators of ClpP; ATP-dependent Clp protease proteolytic subunit (Bacillus subtilis (strain 168)), P80244; purified B. subtilis ClpP, FRET peptide cleavage, 20 min; Potency, µM (highest dose often 57.5 µM), for inactives: at the highest dose activity change, negative = active; actives 1.9% (n = 340,000); AID 651965, 2013; active = well fitted falling curve with a large enough effect; inconclusive = small, poorly fitted or top-dose-only effect; inactive = no such curve, though single readings can be large or run the other way; also: potency is read from the fitted curve at half-maximal effect; the source files actives as falling curves though it sought activators and does not explain the sign; nearly all actives have a fitted effect of over 65% in size
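Buffer: 100 mM Tris/HCl pH8, 100 mM KCl, 0.05% low protease BSA, 2.5% glycerol, 0.01% Tween-20. ClpP 10 microg/mL final; 20 min RT; delta FRET normalized to ADEP and DMSO controls.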
Starred values were filed as active, the others as inactive; ? = inconclusive; · = no result given; ! = a repeat was not active. Unless noted, calls follow the shape of the dose curve; as a rule, active = well fitted curve in the direction sought with a large enough effect; inconclusive = small, poorly fitted or top-dose-only effect, or another doubt; inactive = no such curve, though single readings can be large; an effect the other way counts as inactive or inconclusive.

By UniProt entry, the sequences of proteins in these tests, tags left out.
ATP-dependent Clp protease proteolytic subunit (Bacillus subtilis (strain 168)), P80244, UniProt P80244, whole entry, looked up: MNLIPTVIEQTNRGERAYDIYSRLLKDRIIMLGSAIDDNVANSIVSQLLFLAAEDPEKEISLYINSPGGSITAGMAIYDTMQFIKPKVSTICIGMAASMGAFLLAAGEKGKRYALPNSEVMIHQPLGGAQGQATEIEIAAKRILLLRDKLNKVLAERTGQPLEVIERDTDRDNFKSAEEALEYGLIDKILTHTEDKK

Codes – A = IL-2 act; B = A549 viability; C = Nrf2 activator; D = miR-21 reporter; E = Nrf2 block; F = ClpP mod
CN(C)S(=O)(=O)c1cccc(COc2ccccc2C(=O)Nc2ccccc2)c1
  A = -3.7 | B = -14.5% | C = -0.5% | D = 9.9% | E = ? | F = -11.6%

Cc1cc(C)n(-c2ccc(C(=O)Nc3ccc(C)c(S(=O)(=O)N(C)C)c3)cc2)n1
  A = -3.5 | B = ? | C = 2.0% | D = 23.7% | E = 18.4µM* | F = -0.4%

CCN(CC)S(=O)(=O)c1cccc(NC(=O)c2ccc(-n3nc(C)cc3C)cc2)c1
  A = -3.3 | B = ? | C = 1.1% | D = 25.8% | E = 18.4µM* | F = 0.7%

Cc1ccc(NC(=O)c2ccc(OC(F)(F)F)cc2)cc1S(=O)(=O)N(C)C
  A = 0.2 | B = -6.1% | C = 3.5% | D = 24.1% | E = 11.6µM* | F = -1.0%

CN(c1ccccc1)S(=O)(=O)c1cccc(NC(=O)CCNC(=O)c2ccc([N+](=O)[O-])cc2)c1
  A = -1.0 | B = -1.2% | C = 5.5% | D = · | E = ? | F = -0.9%

CCN(CC)S(=O)(=O)c1cccc(NC(=O)CCNC(=O)c2ccc([N+](=O)[O-])cc2)c1
  A = -2.1 | B = -8.1% | C = 2.7% | D = 7.4% | E = 23.1µM* | F = -4.2%

CN(C)S(=O)(=O)Oc1ccc(C(=O)Nc2cccc(C(F)(F)F)c2)cc1
  A = -0.6 | B = ? | C = -0.4% | D = 24.9% | E = 23.1µM* | F = -0.2%

Cc1ccc(NC(=O)c2ccncc2)cc1S(=O)(=O)N(C)C
  A = -0.3 | B = -3.1% | C = 0.5% | D = -7.9% | E = 3.3% | F = 0.4%

CCN1/C(=C/c2ccc3cc(C)ccc3[n+]2CC)Sc2cc(C)c(C)cc21
  A = 0.7 | B = ? | C = -0.5% | D = ? | E = 1.3µM* | F = ·

CCOC(=O)/C(=C/C=C1\Sc2cc(C)c(C)cc2N1CC)C(C)=O
  A = 2.3 | B = ? | C = 1.5% | D = 1.4% | E = ? | F = 5.7%

Cc1ccc2c(c1)sc1nc(-c3cc4ccccc4oc3=O)cn12
  A = · | B = -0.8% | C = 3.9% | D = 13.4% | E = 18.4% | F = -5.3%

CCOc1ccccc1NC(=O)CC1Nc2ccccc2NC1=O (centres undefined)
  A = -0.9 | B = 3.1% | C = 7.2% | D = 11.9% | E = · | F = 25.1µM*

CCOC(=O)c1cn(CC(=O)Nc2cccc(Cl)c2C)nn1
  A = 6.7 | B = -0.5% | C = -1.2% | D = 12.2% | E = ? | F = 35.5µM*!

Clc1cc(Cl)cc(Nc2ncnc(-n3cccc3)n2)c1
  A = -0.8 | B = 1.5% | C = 2µM* | D = 4.3% | E = -10.6% | F = ·

COc1ccc(C2C(=O)N(C3CCCCCC3)CC(=O)N2CCc2ccc(OC)c(OC)c2)cc1 (centres undefined)
  A = · | B = 1.8% | C = 7.5% | D = -5.0% | E = · | F = 1.5%

CN=c1scc(-c2ccc(F)cc2)n1/N=C/c1ccc(O)c(O)c1
  A = -0.6 | B = -16.2% | C = 17.8% | D = 23.3% | E = 20.6µM* | F = ·

Cc1cccc(C)c1NC(=O)C(Cl)=C(Cl)Cl
  A = -1.9 | B = 0.8% | C = 11.2µM* | D = 28.3% | E = 25.6% | F = ·

Cc1ccc(-c2nc3cnccn3c2Nc2ccc(C(C)C)cc2)o1
  A = · | B = 0.8% | C = · | D = · | E = 0.0% | F = -9.1%

COCc1cc(C)[nH]c(=O)c1C#N
  A = -2.6 | B = 9.6% | C = 2.6% | D = -3.7% | E = · | F = 2.82µM*

Cc1cccc(NC(=O)CSc2nc(C3CCCC3)nc3c2c(=O)n(C)c(=O)n3C)c1C
  A = · | B = -1.8% | C = -0.3% | D = -12.0% | E = · | F = 0.1%

CCC(C)(C)C1CCc2[nH]nc(C(=O)NCCCNC(=O)OC(C)(C)C)c2C1 (centres undefined)
  A = -3.3 | B = -10.0% | C = -1.4% | D = · | E = 25.9µM* | F = 1.6%

CCN(C(=O)CSc1ncc2c(n1)-c1cc(Cl)ccc1N(Cc1ccccc1)S2(=O)=O)c1cccc(C)c1
  A = · | B = 3.7% | C = 0.1% | D = -0.4% | E = -3.1% | F = -6.5%

COc1ccc(NC(=O)CSc2nc(-c3cccc(C)c3)[nH]c2-c2ccccc2)cc1OC
  A = · | B = ? | C = -0.9% | D = ? | E = 23.1µM* | F = -18.9%

COc1ccc(-c2[nH]c(-c3ccc(OC)c(OC)c3)nc2SCC(=O)Nc2ccccc2)cc1
  A = · | B = ? | C = 3.7% | D = 22.9% | E = 23.1µM* | F = -15.3%

COc1ccc(NC(=O)CSc2nc(-c3ccc(OC)c(OC)c3)[nH]c2-c2ccc(C)cc2)cc1
  A = · | B = -11.3% | C = 8.5% | D = 25.6% | E = -4.4% | F = -14.2%

Entries of single compounds, quoted from the list:
CCC(C)(C)C1CCc2[nH]nc(C(=O)NCCCNC(=O)OC(C)(C)C)c2C1 (centres undefined) is entered as IL-2 act = -3.3; A549 viability = -10.0%; Nrf2 activator = -1.4%; miR-21 reporter = ·; Nrf2 block = 25.9µM*; ClpP mod = 1.6%
CCN(CC)S(=O)(=O)c1cccc(NC(=O)CCNC(=O)c2ccc([N+](=O)[O-])cc2)c1 is entered as IL-2 act = -2.1; A549 viability = -8.1%; Nrf2 activator = 2.7%; miR-21 reporter = 7.4%; Nrf2 block = 23.1µM*; ClpP mod = -4.2%
